Laboratory results taken from patent publication US20260158160A1.

Assays:
human C1q (human) [1] = biological target: human C1q (human) (UniProt P02745); test: flow cytometry, serum C1q on SK-OV-3 cells opsonised with the mixture
human C1q (human) [2] = biological target: human C1q (human) (UniProt P02745); test: flow cytometry, serum C1q on opsonised SK-OV-3 cells, 1.25 µg/ml of each mAb

1:1 mixture of trastuzumab-H429F and pertuzumab-H429F
MFI of C1q binding (human C1q (human) [1]): 10900 MFI
MFI of C1q binding (human C1q (human) [2]): 6330 MFI

1:1 mixture of trastuzumab-WT and pertuzumab-WT
MFI of C1q binding (human C1q (human) [2]): 522 MFI
